Among the data in patent US7253165B2, “Benzisoxazolyl-, pyridoisoxazolyl-and benzthienyl-phenoxy derivatives useful as D4 antagonists” (Aventis Pharmaceuticals Inc., priority 1999, dated 2007) are Ki values, retold here.

Protein sequences, listed by entry. Tags and fused reporters are not part of them. Chains listed by the source or under a name are the forms on record and can include a tag or linker.
UniProt P21917, with tags, fused parts or gaps DEL265-296: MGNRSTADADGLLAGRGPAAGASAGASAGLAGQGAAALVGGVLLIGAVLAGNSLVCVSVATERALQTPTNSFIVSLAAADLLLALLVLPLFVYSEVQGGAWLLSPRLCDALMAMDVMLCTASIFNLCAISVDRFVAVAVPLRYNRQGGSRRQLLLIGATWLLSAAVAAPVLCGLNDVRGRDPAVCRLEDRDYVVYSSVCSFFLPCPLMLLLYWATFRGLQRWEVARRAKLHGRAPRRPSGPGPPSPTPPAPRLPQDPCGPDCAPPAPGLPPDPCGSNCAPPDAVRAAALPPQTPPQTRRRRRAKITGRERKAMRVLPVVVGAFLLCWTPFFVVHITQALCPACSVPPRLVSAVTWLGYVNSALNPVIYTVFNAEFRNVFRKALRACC

Like-named read-outs stand apart in the source and are kept apart here.

This assay deals with human D4 receptor (D4.2 sub-type) (Homo sapiens, UniProt P21917, DEL265-296). Put plainly: D4 receptor binding assay, displacement of 3H-spiperone. Particulars: read-out: D4 RBA Ki, 3H-spiperone 0.25 nM, membranes of HEK cells transfected with human D4.2, * = HCl salt. As to the method:
D4 receptor-binding affinities of the compounds were evaluated according to their ability to reduce binding of ^3H-spiperone as compared to the reference compound clozapine. The potency of the test compound to reduce ^3H-spiperone binding directly correlated to its binding affinity for the receptor.
[…] (human embryonic kidney) cells stably transfected with human D4 receptor (D4.2 sub-type) were grown in NUNC cell factories for 5 days (75% confluency) without a media change and removed with versene (approximately 19 mg of cells per cell factory tray). The cells were then centrifuged in a Sorval centrifuge for 10 min, 5000 rpm (GS3 rotor) and the pellets quickly frozen in liquid nitrogen and stored at −80° C. until used in binding assay. When used in the assay, cells were thawed on ice for 20 min and then 10 mL of incubation buffer (50 mM Tris, 1 mM EDTA, 4 mM MgCl2, 5 mM KCl, 1.5 mM CaCl2, 120 mM NaCl, pH 7.4) was added. The cells were then vortexed to resuspend pellet and homogenized with a Kinematica, CH-6010 Kriens-LU, homogenizer for 15 seconds at setting 7. Concentration of receptor protein was determined using the Pierce BCA assay.
The incubation was started by the addition of 100 μl (50 μg protein) membrane homogenate to a solution of 300 μl incubation buffer and 100 μl (0.25 nM final conc.) ^3H-spiperone (90 Ci/mmol, Amersham, diluted in borosilicate glass vial) in 96-well polypropylene plates (1 ML per well). […] The plates were sealed and counted in the Packard Top Count (3 minutes per well).
The incubation was started by the addition of 100 μl (50 μg protein) membrane homogenate to a solution of 200 μl incubation buffer, 100 μl ^3H-spiperone (90 Ci/mmol, Amersham, diluted in borosilicate glass vial to 0.25 nM final conc.) and 100 μl (30 μM final conc.) of fresh dopamine (Research Biochemicals Inc., light protected and dissolved in incubation buffer) in 96-well polypropylene plates (1 mL per well). […] The filters were washed and counted using the same procedure as in the total binding assay described above to give the non-specific binding value (NSB). […]

As to `O[C@@H](COc1cccc(-c2noc3ncccc23)c1)CN1CCC(Oc2cccc(Cl)c2)CC1` [Example 102, (R)-1-[4-(3-chloro-phenoxy)-piperidin-1-yl]-3-(3-isoxazolo[5,4-b]pyridin-3-yl-phenoxy)-propan-2-ol], the Ki came out at 91 nM. The same measure, in the same setting: the figure for `O[C@H](CNCc1c(F)cccc1F)COc1ccc(-c2noc3cc(F)ccc23)cc1` [Example 114, (R)-1-(2,6-difluoro-benzylamino)-3-[4-(6-fluoro-benzo[d]isoxazol-3-yl)-phenoxy]-propan-2-ol] is 6.8 nM. As for `O[C@H](CNCc1ccccc1)COc1ccc(-c2noc3cc(F)ccc23)cc1` [Example 75, (R)-1-benzylamino-3-[4-(6-fluoro-benzo[d]isoxazol-3-yl)-phenoxy]-propan-2-ol], the Ki (tested form: HCl) stood at 7.7 nM.
